These are literature values, as cited in patent US12133915B2, “Method of treating epilepsy” (ALEXZA PHARMACEUTICALS, INC., priority 2016, dated 2024).

The conditions of this series: in vivo; cited from earlier work.

As to `O=C1CN=C(c2ccccc2)c2cc(Cl)ccc2N1` [Desmethyl-DZ], the half-life is 71 h.
